Laboratory results reported in patent publication US20240131198A1, “RATIOMETRIC BIOSENSOR TATTOOS AND USE THEREOF FOR REAL TIME MEASUREMENTS” (priority 2022, published 2024).

Key:
rat skin = test: Delivery of Cy5-PEG/Cy3-PEG microneedle tattoo to the shaved skin of living rats; details: MN delivery, fluorescence stereomicroscopy several hours after application
[1] = 50 μM/500 μM of FeSO4:H2O2, 10 μM dye
[2] = water-saturated n-octanol / phosphate buffer pH 6.8, shake-flask
[3] = PEGylated with 5 kDa MeO-PEG-NH2

Substance | diffusion in the skin (rat skin) | signal retained when exposed to ROS [1] | log P [2] | water solubility [3]
Cyanine-3-PEG [Cy3-PEG] | clearly diffused in the skin | over 75% | −1.03±0.02 | 
Cyanine-5-PEG [Cy5-PEG] | clearly diffused in the skin |  | −1.22±0.07 | water-soluble
